Results from patent US20060229299A1, “5ht2c Receptor antagonists in the treatment of schizophrenia” (priority 2003, published 2006).

Amino acid sequences for entries named in this document (tags omitted).
UniProt P21917, whole entry: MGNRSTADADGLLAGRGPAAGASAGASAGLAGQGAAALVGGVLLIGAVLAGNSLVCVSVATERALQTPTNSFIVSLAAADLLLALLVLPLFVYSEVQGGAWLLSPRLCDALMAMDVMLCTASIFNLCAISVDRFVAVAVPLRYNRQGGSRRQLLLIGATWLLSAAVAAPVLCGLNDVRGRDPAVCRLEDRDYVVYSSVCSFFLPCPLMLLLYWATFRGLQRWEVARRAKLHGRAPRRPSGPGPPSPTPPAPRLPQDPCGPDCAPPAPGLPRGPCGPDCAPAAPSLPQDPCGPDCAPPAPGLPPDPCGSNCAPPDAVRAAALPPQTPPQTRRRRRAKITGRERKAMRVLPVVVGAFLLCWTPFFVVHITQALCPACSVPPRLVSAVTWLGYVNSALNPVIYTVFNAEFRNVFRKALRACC

Assays:
D4 dopamine receptor = D4 dopamine receptor (Homo sapiens, UniProt P21917); settings: cited from earlier work
[1] = tested on: 5-HT2C receptor relative to 5-HT2A and D2 receptors; assay: Relative 5-HT2C affinity (formula I, sum of 5-HT2C/5-HT2A and 5-HT2C/D2 affinity ratios)
5-HT2A/D2 = 5-HT2A/D2 receptor affinity ratio; settings: Table 2; affinity ratio from data of Table 1
5-HT2C/D2 = 5-HT2C/D2 receptor affinity ratio; settings: Table 2; affinity ratio from data of Table 1
5-HT2C/5-HT2A = 5-HT2C/5-HT2A receptor affinity ratio; settings: Table 2; affinity ratio from data of Table 1
[2] = Table 2, sum of affinity ratios from data of Table 1

Row | SMILES | (2C/2A) + (2C/D2) [1, 2] | further results
1 | OCCOCCN1CCN(C2=Nc3ccccc3Sc3ccccc32)CC1 | 1.73 | D4 affinity value (−logKi) (D4 dopamine receptor): 5.8^6; (2C/2A) + (2C/D2) ([1]; Table 4B): 1.73
2 | CN(C)CCCN1c2ccccc2Sc2ccc(Cl)cc21 [Chlorpromazine] | 1.75 | –
3 | O=C(CCCN1CCC(O)(c2ccc(Cl)cc2)CC1)c1ccc(F)cc1 [Haloperidol] | 1.37 | –
4 | Cc1nc2n(c(=O)c1CCN1CCC(c3noc4cc(F)ccc34)CC1)CCCC2 [Risperidone] | 1.69 | (2C/2A) + (2C/D2) ([1]; Table 4B): 1.69
5 | CCN1CCCC1CNC(=O)c1cc(S(N)(=O)=O)ccc1OC (stereo not drawn) [Sulpiride] | <1.65 | –
6 | CSc1ccc2c(c1)N(CCC1CCCCN1C)c1ccccc1S2 (stereo not drawn) [Thioridazine] | 1.72 | –
7 | CN1CCN(CC/C=C2/c3ccccc3Sc3ccc(S(=O)(=O)N(C)C)cc32)CC1 [Thiothixene] | – | 5-HT2A/D2 (5-HT2A/D2): 0.79; 5-HT2C/D2 (2C/D2) (5-HT2C/D2): 0.63; 5-HT2C/5-HT2A (2C/2A) (5-HT2C/5-HT2A): 0.79
